According to patent US20260382581A1, “COMPOSITIONS COMPRISING CYTISINE IN THE TREATMENT AND/OR PREVENTION OF ADDICTION IN SUBJECTS IN NEED THEREOF” (published 2026):

Assays:
[1] = ORCA-3 (Example 2): adverse events, serious adverse events, severe TEAEs, withdrawals (pooled blinded); conditions: ORCA-3 follow up period
Description: This Example describes a Phase 3, multi-center, double-blind, randomized, placebo-controlled trial designed to evaluate the efficacy and safety of cytisine in adult smokers. This study is designed to improve efficacy outcomes and to determine whether continued treatment can prevent early smoking relapse. The study is designed to evaluate treatment across 3 treatment arms: placebo (A), treatment with cytisine (e.g., cytisinicline) for 6 weeks (B), and treatment with cytisine for 12 weeks (C) as shown in the schematic of FIG. 33. Subjects are randomized to one of the three arms A, B, or C. In Arm A, subjects are treated with a placebo for 12 weeks plus behavioral support. In Arm B, subjects are treated with 3.0 mg cytisinicline TID for 6 weeks followed by a placebo for 6 weeks plus behavioral support. In Arm C, subjects are treated with 3.0 mg cytisinicline TID for 12 weeks plus behavioral support. Cytisine treatment will be evaluated in the study population for 6 or 12 weeks, with a primary efficacy endpoint of 4-weeks of continuous abstinence while on treatment and will include a 6-month follow-up period.
All subjects will be monitored for adverse events starting at screening (pre-existing), by telephone contact on Day 1, at clinic visits on Day 2 and Day 7 during Week 1, then weekly throughout the Treatment Period (Weeks 2 through 12/EOT) and monthly during the Follow-up Period (see Table 15 and Table 16). Laboratory (hematology and chemistry) evaluations will be performed at the Week 1, Week 6, and Week 12 clinic visits using a central laboratory.
Safety will be assessed by consideration of all adverse events reported by or elicited from the subject and abnormalities detected on hematology and serum chemistry tests. Worsening of other pre-existing medical conditions and any changes to concomitant medications/treatments will also be taken into account in this evaluation.
Safety assessments will include reported adverse events, laboratory test results, and vital signs. Safety variables will be summarized for the Safety Analysis Set (SAS), defined as all randomized subjects who take at least one dose of study drug.
Adverse events (AEs) will be coded using the MedDRA dictionary. Coding will include system organ class (SOC) and preferred term (PT). All verbatim descriptions and coded terms will be listed for all AEs.

[2] = test system: adult smokers; test: ORCA-2: Effect Modifier Analyses of continuous abstinence; conditions: both treatment durations
Description: Analyses for the binary primary and secondary outcomes were based on exact analyses 2×2 tables stratified by clinical site. Missed assessments of primary and secondary endpoints were imputed as non-success, thereby enabling analyses following the intent-to-treat principle. The Hochberg procedure was used to control for multiplicity (6). A target sample of 750 participants (n=250 per arm) was computed and verified using simulations to provide 96% power for specifications of an overall one-sided 0.025 type I error probability and success probabilities of 7% for placebo and 19% for cytisinicline. Sensitivity analyses included assessments of effect modification related to subsets defined by baseline attributes using logistic and cumulative logit models. Longitudinal analyses used Mixed Model for Repeated Measures methodology (7). Safety analyses included all randomized participants who received at least one dose of study drug. Analyses were conducted by BB.
FIGS. 36 and 37 compare the effectiveness of cytisinicline vs. placebo for the two primary outcomes in subgroups defined by baseline characteristics. […] These EMAs are exploratory and there is no adjustment for multiplicity.

[3] = claude: weekly saliva cotinine levels and change from baseline; conditions: for Saliva cotinine, LS means difference from placebo, p-value: vs placebo, Bonferroni adjusted
Procedure: The first measurement consisted of biochemically verified continuous vaping abstinence during the last 4 weeks of treatment after 12 weeks of cytisinicline treatment vs placebo. Vaping abstinence during weeks 9-12 was verified with no reported vaping with weekly saliva cotinine levels<10 ng/mL. Primary Analysis with prospective stratification factor odds ratio was 2.64 (p=0.035), primary analysis with site as a stratification factor odds ratio was 3.03 (p=0.017), and primary analysis without any stratification factor odds ratio was 2.62 (p=0.035) (FIG. 59).
A second measurement consisted of biochemically verified continuous vaping abstinence at any time during treatment, with vaping abstinence at Week 3-6 or Week 6-9 for of cytisinicline treatment vs placebo. 7-day point prevalence rates were compared for vaping abstinence (Week 2 to 12) (FIG. 62). An additional measurement included reduction in daily vaping as measured by cotinine, where cytisinicline treatment vs placebo for a reduction in nicotine vaping using weekly quantitative cotinine levels from Week 2 to Week 12. Safety was assessed by adverse effects and serious adverse effects, considering number, severity, and attribution to study drug. Early beneficial effect was observed and continued throughout the 12 weeks with some weeks at or close to statistical significance (weeks 4, 6, 7, 8, 9, and 12) (FIGS. 63-65). Cotinine values less than 1 were converted to 1 due to extreme asymmetry (FIG. 65)
Cotinine: The data were analyzed by visit and also using a repeated measures model. There are two longitudinal figures for the graphs of the results from the repeated measure model: arm-specific probability model estimates and arm effect odds ratio model estimates (FIGS. 51-55). Cotinine values less than 1 were converted to 1 due to asymmetry.

[4] = start day 86, resolution day 87
[5] = start day 87, resolution day 90
[6] = start day 87, resolution day 96
[7] = start day 102, resolution day 105
[8] = start day 104, resolution day 105
[9] = start day 107, resolution day 111
[10] = start day 112, resolution day 113
[11] = start day 115, resolution day 120
[12] = start day 119, resolution day 139
[13] = start day 146, no resolution day
[14] = start day 148, resolution day 152
[15] = start day 151, resolution day 161
[16] = start day 161, resolution day 161

O=c1cccc2n1C[C@@H]1CNC[C@H]2C1
Outcome of serious adverse event: Post Surgical Complications [1, 4]: Fatal | Severity/Intensity of serious adverse event: Post Surgical Complications [1, 4]: Severe | Outcome of serious adverse event: Worsening Fatigue [1, 5]: Recovered/Resolved | Severity/Intensity of serious adverse event: Worsening Fatigue [1, 5]: Moderate | Outcome of serious adverse event: Coronary Atherosclerosis [1, 6]: Recovered/Resolved | Severity/Intensity of serious adverse event: Coronary Atherosclerosis [1, 6]: Severe | Outcome of serious adverse event: Acute Cholecystitis [1, 7]: Recovered/Resolved | Severity/Intensity of serious adverse event: Acute Cholecystitis [1, 7]: Moderate | Outcome of serious adverse event: Transient Ischemic Attack [1, 8]: Recovered/Resolved | Severity/Intensity of serious adverse event: Transient Ischemic Attack [1, 8]: Severe | Outcome of serious adverse event: Perforated Bowel [1, 9]: Recovered/Resolved | Severity/Intensity of serious adverse event: Perforated Bowel [1, 9]: Severe | Outcome of serious adverse event: Abscess on Right Groin Area [1, 10]: Recovered/Resolved | Severity/Intensity of serious adverse event: Abscess on Right Groin Area [1, 10]: Severe | Causality of serious adverse event: Sepsis [1, 11]: Unlikely | Outcome of serious adverse event: COPD Exacerbation [1, 11]: Recovered/Resolved | Outcome of serious adverse event: Sepsis [1, 11]: Recovered/Resolved | Severity/Intensity of serious adverse event: COPD Exacerbation [1, 11]: Severe | Severity/Intensity of serious adverse event: Sepsis [1, 11]: Severe | Outcome of serious adverse event: Pneumonia [1, 12]: Recovered/Resolved | Severity/Intensity of serious adverse event: Pneumonia [1, 12]: Severe | Causality of serious adverse event: Acute Kidney Injury Superimposed to Chronic Kidney Disease [1, 13]: Unlikely | Causality of serious adverse event: Ureterolithiasis [1, 13]: Unlikely | Severity/Intensity of serious adverse event: Acute Kidney Injury Superimposed to Chronic Kidney Disease [1, 13]: Severe | Severity/Intensity of serious adverse event: Ureterolithiasis [1, 13]: Severe | Outcome of serious adverse event: Pneumonia [1, 14]: Recovered/Resolved | Severity/Intensity of serious adverse event: Pneumonia [1, 14]: Severe | Causality of serious adverse event: Dyspnea [1, 15]: Unlikely | Outcome of serious adverse event: Dyspnea [1, 15]: Recovered/Resolved | Severity/Intensity of serious adverse event: Dyspnea [1, 15]: Severe | Outcome of serious adverse event: Stab Wound [1, 16]: Fatal | Severity/Intensity of serious adverse event: Stab Wound [1, 16]: Severe | Severity/Intensity of serious adverse event: Dyspnea ([1]; start day 180, no resolution day): Severe | effectiveness in non-White participants [2]: less effective in non-White participants | Saliva cotinine, mean ([3]; Baseline, N 105): 316.186 ng/mL | Saliva cotinine, median ([3]; Baseline, N 105): 303.000 ng/mL | Saliva cotinine, LS means difference from placebo, p-value ([3]; Week 7): 1.0000 | Saliva cotinine, LS means difference from placebo, p-value ([3]; Week 8): 1.0000 | Saliva cotinine, LS means difference from placebo, p-value ([3]; Week 9): 1.0000 | Saliva cotinine, LS means difference from placebo, p-value ([3]; Week 10): 1.0000 | Saliva cotinine, LS means difference from placebo, p-value ([3]; Week 11): 1.0000 | Saliva cotinine, LS means difference from placebo, p-value ([3]; Week 12): 1.0000 | Saliva cotinine, LS means difference from placebo, p-value ([3]; Week 16): 1.0000
